These are literature values, as cited in patent US4791112A, “N-heterocyclic-N-(4-piperidyl)amides and pharmaceutical compositions and methods employing such compounds” (The BOC Group, Inc., priority 1987, dated 1988).

This data set has as its system opioid receptors.

Regarding `C=CCN1CC[C@]23c4c5ccc(O)c4O[C@H]2C(=O)CC[C@@]3(O)[C@H]1C5` [naloxone], for the setting “following intravenous administration”, the side effects result is “ventricular dysrhythmia, hypertension and pulmonary oedema”. Besides, the “antagonism of analgesic component of opioids” value (in vivo) was “tends to also reverse or antagonize the analgesic component of opioids”.
